# Assay outcomes from PubChem BioAssay.
# Most compounds without a hit are left out; they make up all but 16% or so of the library.
# TDP1 block: inhibitors of human tyrosyl-DNA phosphodiesterase TDP1; Potency, µM (doses to about 130 µM), inactives show top-dose activity change, negative = inhibition, hits mostly inhibitors; Q9NUW8; recombinant TDP1, AlphaScreen DNA substrate cleavage; 350,000 tested, 0.28% active; note: potency is the fitted concentration of half-maximal effect; % is set by controls: 0 for no effect and ±100 for the full control effect; nearly all actives have a fitted effect of over 40% in size
#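 Recombinant human Tdp1 (E. coli-expressed, 1 nM final) preincubated with compounds 15 min at room temperature, then 5'-biotin/3'-phosphotyrosine-FITC DNA substrate (15 nM final) added for 5 min. AlphaScreen beads (10 ug/ml final) added 10 min; cleavage lowers signal.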
# TDP1 cell CPT: DT40-hTDP1 cell growth loss with CPT; chicken DT40 Tdp1-/-;hTDP1 cells + 20 nM CPT, ATP luminescence, 48 h; Potency, µM (series often up to 46.2 µM), for the others: at the top dose activity change, negative = growth inhibition, hits mostly inhibitors; 420,000 tested, 12% active; note: potency is the fitted concentration of half-maximal effect; % is set by controls: 0 for no effect and ±100 for the full control effect; nearly all actives have a fitted effect of over 55% in size
#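 Chicken DT40 Tdp1-/- cells complemented with human TDP1, 400 cells/well, exposed to compounds plus 20 nM camptothecin for at least 48 h at 37 C; viability read as ATP content by CellTiter-Glo luminescence.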
# uPA generation: inhibitors of cell surface uPA generation | cell surface uPA generation assay, qHTS | Potency, µM (series often up to 38.3 µM), for the others: top-dose activity change, negative = inhibition, most hits filed as inhibitors | 330,000 tested, 0.31% active | AID 540303; active = well fitted inhibition curve with a large enough effect; inconclusive = small, poorly fitted or top-dose-only effect; inactive = no such curve, though single readings can be large or run the other way; tested in mouse RAW 264.7 cells; note: potency is the fitted concentration of half-maximal effect; % is set by controls: 0 for no effect and ±100 for the full control effect; nearly all actives have a fitted effect of over 55% in size
# TDP1 cell noCPT: qHTS for Inhibitors of human tyrosyl-DNA phosphodiesterase 1 (TDP1): qHTS in cells in absence of CPT. 420,000 tested, 15% active. Potency, µM (top dose mostly 46.2 µM), for the others: at the highest dose activity change, negative = growth inhibition, usual class: inhibitors. DT40 Tdp1-/- hTDP1 cells, no CPT, ATP luminescence, 48 h; note: potency is the fitted concentration of half-maximal effect; % is set by controls: 0 for no effect and ±100 for the full control effect; nearly all actives have a fitted effect of over 55% in size
#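 Camptothecin absent (DMSO only). Human TDP1-complemented DT40 knockout cells, 400 cells/well, 37 °C for minimum 48 hr; ATP measured via CellTiter-Glo, 30 min dark incubation, luminescence.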
# miR-21 FLuc: raises the signal of a miR-21 reporter | AID 2288 | 340,000 tested, under 10 active | Potency, µM (series often up to 38.3 µM), without a hit: at the highest dose reporter change, positive = more light | HeLa miR-21 FLuc reporter, luciferase, 48 h; active = well fitted rising curve with a large enough effect; inconclusive = small, poorly fitted or top-dose-only effect; inactive = no such curve, though single readings can be large or run the other way;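 further: % of control where 0% means no effect; miR-21 action dims this reporter so a rising signal means less miR-21 action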
#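 HeLa cells stably expressing CMV-driven firefly luciferase with a downstream miR-21 binding sequence, endogenously expressing miR-21, were treated with titrations (up to about 40uM final) for 48 hours at 37 degree Celsius. Luciferase luminescence was read after lysis.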
# Starred values were filed as active, the others as inactive; ? = inconclusive; / = no result given; ! = not active in a repeat. Unless noted, calls come from the whole dose curve; as a rule, active = well fitted curve in the direction sought with a large enough effect; inconclusive = small, poorly fitted or top-dose-only effect, or another doubt; inactive = no such curve, though single readings can be large; an effect the other way counts as inactive or inconclusive.
1	CC(=O)c1cnc2nc(C)nn2c1C
2	CCN(C(=O)c1cc2c(=O)oc3ccc(C)cc3c2s1)c1ccccc1F
3	CCn1c(CN2CCN(c3ccc(Cl)cc3)CC2)nc2ccccc21
4	CCN1C(=NCCCOC(C)C)N[C@@H](c2ccccc2)[C@H](C(=O)OC)[C@H]1C
5	CCN1C(=NCCc2ccc([N+](=O)[O-])cc2)N[C@@H](c2ccccc2)[C@H](C(=O)OC)[C@H]1C
6	CCN1C(=NCCc2ccc(Br)cc2)N[C@@H](c2ccccc2)[C@H](C(=O)OC)[C@H]1C
7	Cc1cccc(NC(=O)c2ccc(S(=O)(=O)NCc3cccnc3)cc2)c1C
8	N#CCSc1nnc(-c2ccc(F)cc2)n1N
9	CCc1nn(C(C)C(=O)N2CCN(c3ccccc3)CC2)c(=O)c2cc3occc3n12 (stereo not given)
10	Cc1nn(C(C)C(=O)N2CCN(c3ccc(Cl)cc3)CC2)c(=O)c2cc3occc3n12 (stereo not given)
Assay by compound	1	2	3	4	5	6	7	8	9	10
TDP1 block	2%	-3%	5%	0%	2%	1%	/	-2%	2%	3%
miR-21 FLuc	-3%	-2%	19%	-3%	-2%	?	-1%	4%	-3%	?
uPA generation	1%	/	-6%	2%	-3%	-1%	-11%	1%	-9%	/
TDP1 cell CPT	-3%	?	?	?	?	23µM*	11%	2%	?	?
TDP1 cell noCPT	-20%	21µM*	?	?	15µM*	18µM*	?	2%	-18%	16µM*

11	O=C(NCc1ccccc1)C1CCN(c2ncnc3c2nc2n3CCCCC2)CC1
12	COc1ccccc1CNc1ncnc2c1nc1n2CCCC1
13	COc1ccccc1CNC(=O)C1CCN(c2ncnc3c2nc2n3CCCCC2)CC1
14	O=C(Nc1ccc(F)cc1)C1CCN(c2ncnc3c2nc2n3CCCCC2)CC1
15	COc1ccc(OC)c(CNC(=O)C2CCN(c3ncnc4c3nc3n4CCCCC3)CC2)c1
16	Clc1ccccc1CNc1ncnc2c1nc1n2CCCC1
17	O=C(Nc1ccccn1)C1CCN(c2ncnc3c2nc2n3CCCCC2)CC1
18	CCOc1ccc(Nc2ncnc3c2nc2n3CCCCC2)cc1
19	CC(=O)Nc1ccc(S(=O)(=O)N(C)CC(=O)OC(C)C(=O)NC2CCCC2)cc1 (stereo not given)
20	CN(C)c1ncnc2c1ncn2[C@H]1CN(Cc2ccc(F)cc2)C[C@@H](CO)O1
Assay by compound	11	12	13	14	15	16	17	18	19	20
TDP1 block	4%	4%	4%	3%	5%	4%	0%	10%	2%	/
miR-21 FLuc	-2%	-4%	-4%	0%	-4%	20%	0%	-5%	-1%	/
uPA generation	/	/	-2%	-24%	/	/	9%	/	1%	/
TDP1 cell CPT	-2%	?	?	?	9%	?	2.3µM*	?	10%	-13%
TDP1 cell noCPT	-9%	8.2µM*	23µM*!	18µM*	0%	?	?	21µM*	-2%	-23%

21	CN1CCN(C(=S)c2cn(CCOc3ccccc3F)c3ccccc23)CC1
22	Cc1ccc(OCCn2cc(C(=O)c3cccs3)c3ccccc32)cc1
23	COc1ccccc1OCCn1cc(C(=O)c2cccs2)c2ccccc21
24	Cc1ccccc1OCCn1cc(C(=O)O)c2ccccc21
25	C[C@H](NC(c1cccc2nc(O)c(O)nc12)P(=O)(O)O)c1ccc(Br)cc1 (stereo not given in full)
26	OC(COc1c(F)cc(Br)cc1F)CN1CCc2ccccc2C1 (stereo not given)
27	Cc1cccc(C)c1OCC(O)CN1CCc2ccccc2C1 (stereo not given)
28	CCC(=O)Nc1c(C#N)c2nc3ccccc3nc2n1-c1ccc(C)cc1
29	CCC(C)n1c(NC(=O)c2ccccc2)c(C#N)c2nc3ccccc3nc21 (stereo not given)
30	CCCCn1c(NC(=O)c2ccccc2)c(C#N)c2nc3ccccc3nc21
Assay by compound	21	22	23	24	25	26	27	28	29	30
TDP1 block	10%	-4%	-5%	6%	8%	/	/	/	-5%	9%
miR-21 FLuc	-18%	-7%	28%	-23%	/	2%	/	/	25%	26%
uPA generation	-6%	/	/	2%	/	?	0%	4%	-17%	-24%
TDP1 cell CPT	?	18µM*	?	13%	/	?	4.6µM*	-7%	18µM*	26µM*
TDP1 cell noCPT	18µM*	13µM*	10µM*	12%	/	?	6.5µM*	-3%	13µM*	18µM*

31	Cc1cccc(NC(=O)Cc2nc(-c3c[nH]c(C(=O)N4CCCC4)c3)cs2)c1
32	O=C(CNC(=O)C1CCCC1)Nc1ccccc1Br
33	CC(C)(C)c1cc(NC(=O)c2cc(F)c(F)c(F)c2F)no1
34	Cc1ccc2c(c1)c1ncnc(N3CCN(c4ccccc4)CC3)c1n2C
35	Cc1ccc2c(c1)c1ncnc(N3CCC4(CC3)OCCO4)c1n2C
36	COc1cc2c(c(OC)c1OC)-c1c(cc3c(c1OC)OCO3)CC(C)C(C)C2 (stereo not given)
37	COc1cc2c(c(OC)c1OC)-c1c(cc3c(c1O)OCO3)C[C@@H](C)[C@@H](C)C2
38	C[C@H](CO)N1C[C@H](C)[C@@H](CN(C)Cc2ccc(Oc3ccccc3)cc2)Oc2cc(Br)ccc2S1(=O)=O
39	C[C@H]1CN([C@@H](C)CO)S(=O)(=O)c2ccc(C#CC3CC3)cc2O[C@H]1CN(C)C(=O)c1cccnc1
40	C[C@@H]1CN([C@@H](C)CO)S(=O)(=O)c2ccc(Br)cc2O[C@H]1CN(C)Cc1ccc(-c2ccccc2)cc1
Assay by compound	31	32	33	34	35	36	37	38	39	40
TDP1 block	2%	1%	/	-2%	-1%	-3%	4%	/	/	/
miR-21 FLuc	/	/	0%	-2%	-81%	/	24%	/	/	/
uPA generation	-10%	-1%	-5%	7%	/	/	11µM*	/	/	/
TDP1 cell CPT	?	-9%	29µM*	21µM*	/	/	23µM*	23µM*	0%	21µM*
TDP1 cell noCPT	?	-22%	?	?	/	/	?	12µM*	-22%	5.8µM*

# 4 entries from above, with two lines to a compound:
# Second line of a record: TDP1 block, miR-21 FLuc, uPA generation, TDP1 cell CPT, TDP1 cell noCPT
38) C[C@H](CO)N1C[C@H](C)[C@@H](CN(C)Cc2ccc(Oc3ccccc3)cc2)Oc2cc(Br)ccc2S1(=O)=O
  /, /, /, 23µM*, 12µM*
36) COc1cc2c(c(OC)c1OC)-c1c(cc3c(c1OC)OCO3)CC(C)C(C)C2 (stereo not given)
  -3%, /, /, /, /
40) C[C@@H]1CN([C@@H](C)CO)S(=O)(=O)c2ccc(Br)cc2O[C@H]1CN(C)Cc1ccc(-c2ccccc2)cc1
  /, /, /, 21µM*, 5.8µM*
32) O=C(CNC(=O)C1CCCC1)Nc1ccccc1Br
  1%, /, -1%, -9%, -22%

# Other structures.
41	C[C@H](CO)N1C[C@H](C)[C@@H](CN(C)Cc2cccnc2)Oc2ncc(-c3cccc(C#N)c3)cc2C1=O
42	C[C@@H]1CN([C@@H](C)CO)S(=O)(=O)c2ccc(C#CC3CCCCC3)cc2O[C@@H]1CN(C)Cc1cccnc1
43	C[C@H](CO)N1C[C@H](C)[C@@H](CN(C)Cc2cccc(F)c2)Oc2cc(-c3cccc(C#N)c3)ccc2S1(=O)=O
44	Cc1ccc(S(=O)(=O)NC(C)C(=O)Nc2ccc(C(N)=O)cc2)cc1 (stereo not given)
45	C[C@H]1CN([C@@H](C)CO)S(=O)(=O)c2ccc(C#CC(C)(C)O)cc2O[C@H]1CN(C)Cc1ccccc1
46	C[C@@H]1CN([C@H](C)CO)S(=O)(=O)c2ccc(Br)cc2O[C@H]1CN(C)S(C)(=O)=O
Assay by compound	41	42	43	44	45	46
TDP1 block	/	/	/	4%	/	/
miR-21 FLuc	/	/	/	-3%	/	/
uPA generation	/	/	/	-1%	/	/
TDP1 cell CPT	?	15µM*	?	19%	18µM*	5%
TDP1 cell noCPT	-17%	5.2µM*	23µM*	3%	23µM*	-2%
